These results are taken from patent US20130023553A1, “PEGYLATED OPIOIDS WITH LOW POTENTIAL FOR ABUSE AND SIDE EFFECTS” (Nektar Therapeutics, priority 2010, published 2013).

Chains of the proteins cited; added tags and fusions are not shown. Lines headed by an entry give the natural chain unless they say otherwise; changes in a name come on top.
UniProt P41145: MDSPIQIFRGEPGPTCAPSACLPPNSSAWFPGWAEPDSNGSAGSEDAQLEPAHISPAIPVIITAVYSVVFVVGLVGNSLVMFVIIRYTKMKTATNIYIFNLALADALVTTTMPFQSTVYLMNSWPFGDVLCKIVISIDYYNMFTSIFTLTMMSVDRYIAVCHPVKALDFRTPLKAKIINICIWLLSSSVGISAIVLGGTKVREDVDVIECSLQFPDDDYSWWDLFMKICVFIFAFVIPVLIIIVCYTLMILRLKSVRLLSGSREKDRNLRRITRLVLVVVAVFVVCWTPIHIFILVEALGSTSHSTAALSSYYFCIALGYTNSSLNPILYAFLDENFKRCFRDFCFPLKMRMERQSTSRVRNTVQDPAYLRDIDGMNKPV

In assay [1] the target is T1, human kappa opioid receptor (Homo sapiens, UniProt P41145).
T1 construct: expressed in transfected cells; host or cells: CHO cells
The assay is described as follows: biochemical. It is filed as binding.

In another assay the test system is CD-1 male mice. In words: Phenylquinone writhing analgesic assay. The note with it: Mus musculus. Background: In writhing tests, fewer writhes than in controls are read as antinociception.

In the case of `COCCOCCOCCOC1C=CC2C3Cc4ccc(OC)c5c4C2(CCN3C)C1O5` (stereo not drawn) [α-6-mPEG3-O-codeine], the Ki (commonly a dissociation constant, usually derived from enzyme kinetics or from competition with a known ligand) in assay [1] amounted to 36.5 µM.
In the case of `CN1CC[C@]23c4c5ccc(O)c4O[C@H]2[C@@H](O)C=C[C@H]3[C@H]1C5` [Morphine, morphine, reference compound], in the assay on CD-1 male mice, it took a dose of 0.369 mg/kg to reach the 50% effect level (ED50).
